This note sets out measurements from ChEMBL document CHEMBL3638875, “Pyrazol-4-yl-heterocyclyl-carboxamide compounds and methods of use” (2014).

Protein sequences, listed by entry. Tags and fused reporters are not part of them.
UniProt P11309, whole entry: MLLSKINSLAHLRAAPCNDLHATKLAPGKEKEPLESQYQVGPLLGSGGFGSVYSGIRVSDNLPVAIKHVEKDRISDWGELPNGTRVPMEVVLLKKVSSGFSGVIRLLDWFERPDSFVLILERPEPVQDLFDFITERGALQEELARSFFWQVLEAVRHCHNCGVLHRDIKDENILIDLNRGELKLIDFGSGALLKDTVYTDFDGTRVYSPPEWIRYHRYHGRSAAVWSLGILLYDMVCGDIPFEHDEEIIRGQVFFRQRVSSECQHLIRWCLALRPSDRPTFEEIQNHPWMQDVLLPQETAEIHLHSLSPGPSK

For the experiment, the target named is Serine/threonine-protein kinase pim-1 (Homo sapiens, UniProt P11309). As to the kind of experiment: Binding Assay: PIM-1, -2, and -3 enzymes were generated as fusion proteins expressed in bacteria and purified by IMAC column chromatography (Sun, X., Chiu, J. F., and He, Q. Y. (2005) Expert Rev. Proteomics, 2:649-657). A fluorescent-labeled Pim-specific peptide substrate, was custom synthesized by American Peptide Company (Sunnyvale, Calif.). Reaction Buffer contained 10 mM HEPES, pH 7.2, 10 mM MgCl2, 0.01% Tween 20, 2 mM DTT. Termination Buffer contained 190 mM HEPES, pH 7.2, 0.015% Brij-35, 0.2% Coating Reagent 3 (Caliper Life Sciences, Hopkinton, Mass.), 20 mM EDTA. Separation Buffer contained 100 mM HEPES, pH 7.2, 0.015% Brij-35, 0.1% Coating Reagent 3, 1:200 Coating Reagent 8 (Caliper Life Sciences, Hopkinton, Mass.), 10 mM EDTA and 5% DMSO.

Each structure is given as a SMILES string.

Consider `Cn1ncc(NC(=O)c2nc(Br)cnc2N)c1N1CCC[C@H](N)C1`, for which the affinity, expressed as Ki, was 38.8 nM.
